{
  "source": "patent US12624042B2",
  "about": "“Compound for targeted degradation of BTK and anti-tumour use thereof” (SHANGHAI MEIZER PHARMACEUTICALS CO., LTD., priority 2020, dated 2026)",
  "key": {"[1]": {"tested_on": "Caco-2 cells", "assay": "Caco-2 membrane permeability and efflux test", "settings": "for Papp Sample-01 / Papp Sample-02 / Papp Mean: Caco-2 monolayer, 37° C., 90 minutes; for Papp Mean: mean of two samples", "protocol": "• 1) Caco-2 cells in the logarithmic growth phase were taken, digested and centrifuged and the cell concentration was adjusted to 4×10^5 cells/mL with MEM complete medium. • 2) 0.5 mL of cell suspension was added to the apical side (AP side) and 1.5 mL MEM cell complete medium was added to the basal side (BL side) of the Transwell plate, respectively. • 3) Culture in a cell constant temperature incubator, change the culture medium every two days, and change the medium every day after one week of culture. • 4) After about 21 days, the resistance value of the formed continuous monolayer film is greater than 100 Ω·cm^2, and the transport experiment is carried out within 3-5 days. • 5) The test compound solution was added to the AP side as the donor solution (Donor), and 1.5 mL of the receiver solution (Receiver) was added to the basal side (BL side). After the culture plate was placed in an incubator at 37° C. for 90 minutes, the AP side was separated from the BL side to terminate the reaction. • 6) Donor or Receiver samples were diluted with 0.4% DMSO in HBSS, and then mixed with acetonitrile. The LC conditions were as follows: mobile phase A: H2O—0.025% FA-1 mM NH4OAC, B: MeOH-0.025% FA-1 mM NH4OAC. Column: ACQUITY UPLC BEH_C18 ([…], 1.7 μm). Flow rate 0.60 mL/min. Gradient: 0.2 min 2% B, 0.6 min 98% B, 1.3 min 98% B, 1.31 min 2% B, 1.8 min stop. • 7) Calculation formula: Papp=(VA/(area×time))×([drug]receiver/([drug]donor)×dilution factor)\nwhere VA is the volume in the receiving chamber, area is the surface area of the membrane, and time is the total transport time in seconds.\nDrug molecules cross the single cell layer or via the cell gap from the apical side (AP side) to the basolateral side (BL side) of the Caco-2 monolayer are A to B, and vice versa are B to A. The efflux ratio: Papp(B−A)/Papp(A−B)."}, "[2]": {"molecular_target": "BTK-C481S mutant protein (Homo sapiens, UniProt Q06187, C481S)", "assay": "Western blot assay for degradation of BTK-C481S mutant protein in TMD8 (BTK-C481S) cells", "settings": "read-out: Degradation BTK-C481S activity DC50, 24 hours of drug treatment, GAPDH internal reference", "protocol": "(§1) The TMD8 (BTK-C481S) mutant cell line was cultured in RPMI-1640 medium containing 20% fetal bovine serum in an incubator at 37° C., 5% CO2, and saturated humidity. After the cells grew to the logarithmic growth phase, 5×10^6 cells per well were seeded in a 6-well culture plate, and a DMSO control group and a compound test group were set.\n(§2) After 24 hours of drug treatment, the cells were collected, added pre-cooled cell lysate, and lysed on ice for 45 min. After the cells were completely lysed, they were centrifuged, and the supernatant was taken and stored in an ice bath. The protein concentration was determined by Bradford protein concentration assay kit (detergent compatible type), and protein samples were prepared. After the proteins were separated by SDS-PAGE gel electrophoresis, they were transferred to PVDF membranes by wet method and blocked with 5% BSA solution at room temperature for 1 h. Diluted rabbit anti-human BTK and GAPDH were added according to the experimental requirements, and incubated overnight at 4° C. After washing the membrane with TBST, horseradish peroxidase-labeled goat anti-rabbit IgG secondary antibody dilution was added and incubated at room temperature for 1 h. After washing the membrane with TBST, the ECL luminescent solution was added in the gel imager for development and imaging. […]"}, "[3]": {"molecular_target": "BTK protein (Homo sapiens, UniProt Q06187)", "assay": "Western blot assay for degradation of BTK protein in Jeko-1 cells", "settings": "read-out: Degradation of BTK activity DC50, 24 hours of drug treatment, GAPDH internal reference", "protocol": "as §1, with “Jeko-1” for “TMD8 (BTK-C481S) mutant”\nas §2"}},
  "data": [
    {"compound": "Nc1ncnc2c1c(-c1ccc(Oc3ccccc3)cc1)nn2C1CCN(CCOCCOCCOc2ccc3c(c2)CN(C2CCC(=O)NC2=O)C3=O)CC1", "note": "(stereo not drawn)", "values": [
      {"measurement": "Papp Sample-01", "setting": "[1]; A-B", "result": "3.18 10^−6 cm · s^−1"},
      {"measurement": "Papp Sample-02", "setting": "[1]; A-B", "result": "3.46 10^−6 cm · s^−1"},
      {"measurement": "Papp Mean", "setting": "[1]; A-B", "result": "3.32 10^−6 cm · s^−1"},
      {"measurement": "Papp Sample-01", "setting": "[1]; B-A", "result": "25.07 10^−6 cm · s^−1"},
      {"measurement": "Papp Sample-02", "setting": "[1]; B-A", "result": "33.04 10^−6 cm · s^−1"},
      {"measurement": "Papp Mean", "setting": "[1]; B-A", "result": "29.05 10^−6 cm · s^−1"},
      {"measurement": "Papp(B-A)/Papp(A-B)", "setting": "[1]; efflux ratio, Caco-2", "result": 8.75},
      {"measurement": "DC50", "setting": "[2]", "result": 17, "unit": "nM"},
      {"measurement": "DC50", "setting": "[3]", "result": 12.3, "unit": "nM"}
    ]}
  ]
}
